Experimental data: PMC6044897 (ACS Omega, 2017)

Chains of the proteins cited; added tags and fusions are not shown. Lines headed by an entry give the natural chain unless they say otherwise; changes in a name come on top.
UniProt P08172, whole entry: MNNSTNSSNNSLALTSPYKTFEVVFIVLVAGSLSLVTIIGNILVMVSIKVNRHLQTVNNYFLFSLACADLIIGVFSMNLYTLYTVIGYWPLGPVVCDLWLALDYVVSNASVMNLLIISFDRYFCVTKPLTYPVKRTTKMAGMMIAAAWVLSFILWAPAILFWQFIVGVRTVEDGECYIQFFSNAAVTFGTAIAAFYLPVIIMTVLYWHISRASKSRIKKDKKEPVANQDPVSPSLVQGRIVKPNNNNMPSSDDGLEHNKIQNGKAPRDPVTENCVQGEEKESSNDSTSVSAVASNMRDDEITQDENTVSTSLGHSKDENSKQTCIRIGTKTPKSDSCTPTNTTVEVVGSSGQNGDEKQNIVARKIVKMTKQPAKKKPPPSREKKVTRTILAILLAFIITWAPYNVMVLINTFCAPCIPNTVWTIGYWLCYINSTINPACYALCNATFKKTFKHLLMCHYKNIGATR

Tests used:
M2R [1] = target: T1, M2R (Homo sapiens, UniProt P08172); assay: Equilibrium competition binding with [^3H]5 at live CHO-hM2R cells
M2R [2] = target: T1, M2R; assay: Equilibrium competition binding with [^3H]64 at CHO-hM2R cell homogenates

Question: Which Ki (M2R [1]) does the source give for `CCCCCCOc1nsnc1C1=CCCN(C)C1` [Compound 1, xanomeline] here?
Answer: 282 nM

Question: What about the Ki (M2R [2]) of the same compound?
Answer: 1660 nM
